Binding of CDR-mutated scFvs to a peptide of the spike HR2 region

Data: MIT Lincoln Laboratory AlphaSeq set, Li et al. 2023, doi:10.1038/s41467-023-39022-2, as distributed in FLAb.

Target: peptide PDVDLGDISGINAS, taken from heptad repeat 2 (HR2) of SARS-CoV-2 spike.

The variants keep the heavy chain, the linker and the frameworks of Ab-14 (scFv order VH, the linker GGGGSGGGGSGGGGS, VL).
VH: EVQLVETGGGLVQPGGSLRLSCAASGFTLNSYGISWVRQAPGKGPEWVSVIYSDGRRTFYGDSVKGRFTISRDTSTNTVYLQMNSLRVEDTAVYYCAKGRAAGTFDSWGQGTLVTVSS
VL: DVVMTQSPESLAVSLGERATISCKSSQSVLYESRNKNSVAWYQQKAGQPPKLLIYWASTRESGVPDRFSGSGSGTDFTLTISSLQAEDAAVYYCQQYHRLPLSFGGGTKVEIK

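Phage display of a naive human antibody library on the peptide gave the parent. These sequences belong to a second round, designed from the earlier measurements on random variants of the parent. Group labels follow the data file (En: ensemble of fine-tuned language models; GP: Gaussian process model; HC: hill climbing; Gen: genetic algorithm; Gibbs: Gibbs sampling; a sequence that several methods proposed may carry one label only). The scFvs were displayed on barcoded MATa yeast, the peptide on MATalpha yeast. After mating in shaken culture at 30 °C for 16 h, diploids were selected and their barcode pairs sequenced. The ratio of observed to expected reads was calibrated, replicate by replicate, on BCL2-family standards whose Kd was known from biolayer interferometry. Each pool was mated in six replicate cultures.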

The parent's light chain CDRs are KSSQSVLYESRNKNSVA, WASTRES, QQYHRLPLS; each variant's own CDRs replace them letter for letter. This list holds designs with more than six substitutions. Each Kd is an estimate from the mating assay, the geometric mean of the replicates in which the pair was seen; lower is stronger. An entry "no signal" has no value in the source: the pair was not observed among the diploids in any replicate. This suggests poor binding but is not conclusive. Empty control strains, which show no peptide, gave a signal in 4% of pairings with all light chain designs; the median was 430 nM and 95% of these signals were weaker than 38 nM. No background was subtracted. Values of this round are not directly comparable with the first-round values of the same sequences. The authors averaged sequences with at least three values out of six and counted those with two or fewer as poor binders.

CDR-L1	CDR-L2	CDR-L3	group	Kd (apparent)	replicates with signal
KIQWYQLEMRDPGSAVA	EASVRYN	QQYMRLPLE	En_Gibbs	16 nM	2 of 6
KLTMMYQHTSKNKNNIA	ERSTREE	QQYHHLPLS	En_HC	860 pM	6 of 6
SLGLMTMLEEYVRNSVA	NNSTRED	QQYDRLPLS	En_Gen	280 nM	1 of 6
FFSLIQGSYGEANNSIA	ERNTRAP	QQYGRLPLV	En_Gibbs	17 nM	6 of 6
SLRHMILDWDNKMGNIA	DVHMREQ	QQYFRLPIV	En_Gibbs	1.5 nM	6 of 6
ALSINMPQQHYMYDSIA	HSDRREA	QQYYRLPLA	En_Gibbs	4.9 nM	6 of 6
KMSQEVPLESRNDNAVA	MASTRMM	QQYHRLPLS	GP_Gibbs	5.1 nM	6 of 6
TISQSWIYESRNKNNVA	EMSTREN	QDYDRLPLS	En_HC	660 pM	6 of 6
NMTGIKEMQSNNINNIA	ENNERFQ	QQYWQLPLS	En_Gibbs	26 nM	6 of 6
TISQMTSSFSMNINNVA	EVSTRCK	QQYDRLPLA	En_Gen	11 nM	6 of 6
ALQMETLGQKQKQNNIA	NQDMRTA	QQYYMLPLS	En_Gibbs	3.0 nM	6 of 6
QIGMLLNFESQKINNVA	QMETRVN	QQYDRLPLS	En_Gen	4.0 nM	6 of 6
TLTQVTMVESYNKNSVA	QANTREE	QDYHRLPLS	En_HC	170 nM	5 of 6
KLQWSWMMQSRNKNSVA	HASMRLS	QQYHRLPLS	GP_Gibbs	no signal	0 of 6
TLTQSVTMESHNKNSVA	DLSTRGS	QQYHRLPLS	En_HC	1.8 nM	6 of 6
MVTQMAMTGMMNKRSVA	NAETREN	QQYHRLPLI	En_Gen	2.6 nM	6 of 6
KQSQSVLYGERNSNSVA	NASYRLS	QQYHRLPLS	GP_Gibbs	1.5 nM	6 of 6
MMLYGDNSVGSQKDSIA	EAEQVME	QHYFRLPLV	En_Gibbs	910 nM	4 of 6
KISQMFNVGTKNKNSLA	EMSTREF	QDYHRLPLS	En_HC	45 nM	6 of 6
KLSFLQGGESRNKNSVA	DAGTRES	QQYHRLPLS	GP_Gibbs	1.1 nM	6 of 6
KVSGSQLYESRNSNAVA	NASTRMS	QQYHRLPLS	GP_Gibbs	2.5 nM	6 of 6
MVNGIMDHLSKQTNNVA	ETTTREE	QQYERLPLS	En_Gen	9.8 nM	6 of 6
MLTMFPNEPTGDSSNIA	DTNQLNT	QQYQRLPLM	En_Gibbs	3.1 nM	6 of 6
HMSMLTLQGMRQKNSVA	QMTTREN	QQYDHLPLA	En_Gen	21 nM	6 of 6
HIQDDAGGAKEQFDSVA	STEERSY	QQYSRLPLS	En_Gibbs	9.6 nM	6 of 6
IIAQLMFWGNKSANSIA	QAEERTN	QQYHHLPLS	En_Gen	no signal	0 of 6
QLGAVQDMTSKNRNSVA	EQSTREN	QQYHRLPLS	En_HC	2.5 nM	6 of 6
KISMLYNYESVNKNSIA	EMTTREQ	QHYHRLPLS	En_HC	no signal	0 of 6
ALTRQNLQNMDNLNSIA	EQNQTQE	QQYFRLPFA	En_Gibbs	3.5 nM	6 of 6
KLQCSEEYESRQFNSVA	EASTRNL	QQYHRLPLS	GP_Gibbs	2.4 nM	6 of 6
KFFQSQLYEQRNQNSVA	SASYRLS	QQYHRLPLS	GP_Gibbs	21 nM	6 of 6
KLQNQYEYESRMMNSVA	NASTRLE	QQYHRLPLS	GP_Gibbs	1.0 nM	6 of 6
KLSQTHGMESVNRNSVA	ELVTRMH	QQYNRLPLS	En_Gen	6.0 nM	6 of 6
MVSQLMWWGMHAKNSIA	EAQTRIN	QQYDRLPLF	En_Gen	120 nM	1 of 6
TISQMSTLFSQTINNVA	EVSTREE	QQYDRLPLM	En_Gen	2.7 nM	6 of 6
TLTQSVEMESHNKNSVA	DLSTRGS	QQYHRLPLS	En_HC	1.4 nM	6 of 6
KISMLHNQTFEQSNNVA	EMVTREK	QQYNRLPLS	En_Gen	16 nM	5 of 6
KVDQSVGGLSRNQNAVA	AASTRES	QQYHRLPLS	GP_Gibbs	510 pM	6 of 6
VLPDPMLMFEMQYNSIA	EGVQRME	QQYERLPLT	En_Gibbs	14 nM	6 of 6
KITDKFLTEGNGRQNIA	HGMVALD	QQYQQLPLA	En_Gibbs	1.2 nM	6 of 6
KLVQPDDNDNQDMRNVA	DENTLGQ	QQYNRLPLG	En_Gibbs	9.5 nM	6 of 6
NLNVSEDQMPSSKNAIA	QTTCRNL	QQYVKLPLS	En_Gibbs	1.9 nM	6 of 6
KIQPHLSQSFASKNNIA	DRVLSAE	QQYNRLPLV	En_Gibbs	870 pM	6 of 6
IIDQIMYHGNKSANSIA	QASERLN	QQYYHLPLT	En_Gen	4.1 nM	6 of 6
KLSMSYRYESEVKNSIA	ELVTRMS	QQYHRLPLS	En_HC	29 nM	6 of 6
KFNQMVLTGAYVSNSVA	QMSTRVN	QQYHRLPLS	En_HC	1.5 nM	6 of 6
RIQDHMAVGEMSHSSIA	EESTVMD	QQYSRLPLA	En_Gibbs	13 nM	6 of 6
HLSQSTDLESVHKNSIA	DLMTRES	QQYHRLPLS	En_HC	4.2 nM	6 of 6
QIGMLLNFESKIVNNVA	QMETRVQ	QQYDRLPLS	En_Gen	7.6 nM	6 of 6
MVYGAAMMGGHARNSIA	NAQMRPD	QQYHRLPLI	En_Gen	13 nM	6 of 6
KLSQFYRMESRTKNSVA	DNSTRES	QDYDRLPLS	En_HC	9.1 nM	6 of 6
KFEQLVLPEDRNKNSVA	NASLRED	QQYHRLPLS	GP_Gibbs	660 pM	6 of 6
KLDGSFNYESRNKNSVA	EASERES	QQYHRLPLS	GP_Gibbs	440 pM	6 of 6
KISQMVNYESTHVNAVA	QMSTREE	QQYNRLPLS	En_HC	1.9 nM	6 of 6
HMSALTYQGMRMRNSVA	QMTTREN	QQYDRLPLA	En_Gen	57 nM	6 of 6
KLRQMTGYESRNKDSIA	DNSTRGR	QQYHRLPLS	En_HC	150 nM	1 of 6
SVAMLLDQQYAKGANIA	EAAELVV	QQYYRLPLT	En_Gibbs	7.0 nM	6 of 6
TLGQSTMVEQYNKNSVA	QASTREE	QDYHRLPLS	En_HC	2.1 nM	2 of 6
SLSMSMAFLSRNKNNVA	ENSTRES	QQYHRLPLL	En_HC	7.4 nM	6 of 6
KFSQMANQFSVSMNAVA	EMSTREN	QQYNRLPLA	En_Gen	2.7 nM	6 of 6
KISSLTMYESVNKNNIA	EMTTRPS	QSYHRLPLS	En_HC	1.9 nM	6 of 6
KISMTYRYESQASNNIA	EMTTREE	QSYHRLPLS	En_HC	4.8 nM	6 of 6
MISQLYNMGQFAINSVA	QASERNV	QQYDRLPLI	En_Gen	42 nM	6 of 6
KVDQDDLYENRNCNSVA	QASTRES	QQYHRLPLS	GP_Gibbs	1.9 nM	6 of 6
KLNLEEEWGTGQWQNIA	EREIAWQ	QQYQSLPLS	En_Gibbs	2.6 nM	4 of 6
KIGMTLNQLLHKKNNVA	DLVEREN	QQYFRLPLS	En_Gen	4.9 nM	6 of 6
TISTSANYESTNKNSVA	ELSTRGS	QQYERLPLS	En_HC	5.0 nM	6 of 6

Extract of 5 entries:

{"CDR-L1": "KLVQPDDNDNQDMRNVA", "CDR-L2": "DENTLGQ", "CDR-L3": "QQYNRLPLG", "group": "En_Gibbs", "Kd (apparent)": "9.5 nM", "replicates with signal": "6 of 6"}
{"CDR-L1": "TLTQSVTMESHNKNSVA", "CDR-L2": "DLSTRGS", "CDR-L3": "QQYHRLPLS", "group": "En_HC", "Kd (apparent)": "1.8 nM", "replicates with signal": "6 of 6"}
{"CDR-L1": "TLTQVTMVESYNKNSVA", "CDR-L2": "QANTREE", "CDR-L3": "QDYHRLPLS", "group": "En_HC", "Kd (apparent)": "170 nM", "replicates with signal": "5 of 6"}
{"CDR-L1": "KLQNQYEYESRMMNSVA", "CDR-L2": "NASTRLE", "CDR-L3": "QQYHRLPLS", "group": "GP_Gibbs", "Kd (apparent)": "1.0 nM", "replicates with signal": "6 of 6"}
{"CDR-L1": "NMTGIKEMQSNNINNIA", "CDR-L2": "ENNERFQ", "CDR-L3": "QQYWQLPLS", "group": "En_Gibbs", "Kd (apparent)": "26 nM", "replicates with signal": "6 of 6"}